System: Acar3
Format: binding, great reed warbler Acrocephalus arundinaceus
Details: Table S5, half-life estimated from dissociation in scintillation proximity assay

## FMYSDFHFI [9-mer peptide]
  Stability T½ (h), peptide - Acar3: 0.1 h
